# Test results taken from publication PMC12402003, “Synergy analysis of cyanidin-3-O-glucoside and catechin: absorption, transport and lipid metabolism effects” (Frontiers in Nutrition, 2025).
# Sequences of proteins named here, by UniProt entry; tags and fusion partners are left off. A change or cut given only in a name is not applied to a line headed by its entry.
# UniProt Q92887: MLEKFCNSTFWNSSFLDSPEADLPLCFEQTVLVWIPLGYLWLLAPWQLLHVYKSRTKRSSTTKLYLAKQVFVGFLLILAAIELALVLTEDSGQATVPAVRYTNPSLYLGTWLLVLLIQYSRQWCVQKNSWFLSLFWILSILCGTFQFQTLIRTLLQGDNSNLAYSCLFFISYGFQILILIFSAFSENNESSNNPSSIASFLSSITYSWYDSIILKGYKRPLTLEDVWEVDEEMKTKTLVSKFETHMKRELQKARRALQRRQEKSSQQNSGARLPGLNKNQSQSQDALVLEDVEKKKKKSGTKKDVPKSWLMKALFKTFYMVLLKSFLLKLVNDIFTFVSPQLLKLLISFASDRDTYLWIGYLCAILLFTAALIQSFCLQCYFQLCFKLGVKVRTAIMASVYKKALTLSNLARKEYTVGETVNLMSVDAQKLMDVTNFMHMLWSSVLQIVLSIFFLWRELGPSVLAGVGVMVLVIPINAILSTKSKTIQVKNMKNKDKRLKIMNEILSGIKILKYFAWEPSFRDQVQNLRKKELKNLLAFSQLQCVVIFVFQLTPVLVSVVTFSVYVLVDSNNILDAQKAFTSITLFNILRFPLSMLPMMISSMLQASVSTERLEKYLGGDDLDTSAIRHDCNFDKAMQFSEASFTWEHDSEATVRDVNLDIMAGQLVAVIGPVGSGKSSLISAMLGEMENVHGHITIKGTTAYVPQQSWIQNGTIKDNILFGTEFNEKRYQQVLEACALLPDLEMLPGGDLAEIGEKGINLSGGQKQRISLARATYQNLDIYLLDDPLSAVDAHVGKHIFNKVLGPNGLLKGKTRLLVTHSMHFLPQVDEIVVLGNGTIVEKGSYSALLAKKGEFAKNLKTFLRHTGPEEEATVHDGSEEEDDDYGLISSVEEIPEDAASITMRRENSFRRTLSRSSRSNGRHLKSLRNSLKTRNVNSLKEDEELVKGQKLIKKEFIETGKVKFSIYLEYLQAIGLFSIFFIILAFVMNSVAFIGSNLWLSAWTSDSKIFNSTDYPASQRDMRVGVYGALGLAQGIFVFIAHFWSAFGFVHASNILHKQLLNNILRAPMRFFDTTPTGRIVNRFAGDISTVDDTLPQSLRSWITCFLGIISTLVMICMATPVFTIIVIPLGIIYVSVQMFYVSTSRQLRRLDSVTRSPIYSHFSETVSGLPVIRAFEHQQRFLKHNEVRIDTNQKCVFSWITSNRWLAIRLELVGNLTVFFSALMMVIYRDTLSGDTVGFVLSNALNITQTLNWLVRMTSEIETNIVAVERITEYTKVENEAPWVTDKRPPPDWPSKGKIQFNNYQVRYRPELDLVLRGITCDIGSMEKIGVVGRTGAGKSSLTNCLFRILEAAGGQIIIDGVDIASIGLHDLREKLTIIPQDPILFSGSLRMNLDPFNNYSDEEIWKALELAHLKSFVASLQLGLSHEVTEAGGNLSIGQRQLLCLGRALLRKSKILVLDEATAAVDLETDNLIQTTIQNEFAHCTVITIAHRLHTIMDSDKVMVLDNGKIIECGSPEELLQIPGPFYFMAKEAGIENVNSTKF
# Target: MRP2 (Homo sapiens, UniProt Q92887)
# Test: Bidirectional Caco-2 transport with probenecid (MRP inhibitor)
# Conditions: 50 μmol/L, 90 min, + Prob (probenecid 1 mM)
# Procedure: Transport assay: The monolayers were pre-incubated at 37°C for 30–40 min with 5% CO2 in a pre-warmed media, which contained Hanks Balanced Salt solution (HBSS, BioWhittaker), HEPES buffer and D-glucose. For the transport of apical (AP) side to basolateral (BL) side, the media was removed after pre-incubation and 0.5 mL of polyphenols was added to the AP side. 1.5 mL of HBSS were added to the BL side. Then 200 μL of samples were taken from the BL side at 30, 60, 90, 120 and 150 min, respectively. The BA sample volumes removed were therewith replenished with same volumes of the HBSS solution. For the transport of BL to AP, polyphenols were added to BL and samples were taken from AP at a series of time points as above mentioned. The TEER was measured from the beginning to the end of the assay.
# Caco-2 cells (1×10^5 cells/well) were cultured in 96-well plates for 24 h until differentiation, with a TEER value exceeding 400 Ω·cm^2. Bidirectional transport experiments from AP to BL or from BL to AP were performed as mentioned in the transport assay. The apparent permeability coefficients, cumulative release and initial concentrations and efflux rates were determined. In brief, the total transport time was set to 150 min. For AP to BL transport, 0.5 mL of polyphenols were added to AP with 1.5 mL of HBSS to the BL side. […]
smiles,measurement,value
O.Oc1cc(O)c2c(c1)O[C@H](c1ccc(O)c(O)c1)[C@@H](O)C2 [catechin],Papp (AP → BL),3.15 ± 0.14 ×10^−5 cm /s
